Measured values: US20250108034A1, “EYE DROP FORMULATION” (priority 2021, published 2025)

Experiment: Solubility of ASP-CD in physiological saline solution with benzalkonium chloride
Format: physicochemical
Details: 35° C., BC 0.004 and 0.008%
Procedure: Excess amounts of ASP were added to 5 mL of physiological saline solutions containing increasing concentrations of CD in the 1-20 mM range in sealed glass vials. Different concentration of benzalkonium chloride (BC) (0.004 and 0.008%) as preservative agent was added to the formulation The obtained suspensions were electromagnetically stirred (500 rpm) at constant temperature (35+0.5° C.) until equilibrium (24 h). Then, aliquots were withdrawn, centrifuged using a Hermle Z323K high performance refrigerated centrifuge (Hermle AG, Goss-heim, Germany) for 30 min at 16,000 rpm to separate solid ASP crystals from ASP-CD solution and ASP concentration was assayed with HPLC-DAD.
The determination of ASP concentration was performed with HPLC using an Agilent 1260 (Agilent Technologies, Santa Clara, USA). As stationary phase a Zorbax Eclipse© C18 column 100×4.6 mm, 5 μm (Phenomenex, Torrance, CA, USA) was applied. Isocratic elution with purified water and methanol 10:90 (v/v) was applied for 6 min at a flow rate of 1.0 mL/min at 25° C. 10 μL of the samples were injected to determine the ASP concentration. The chromatograms were detected at 255 nm using UV-VIS diode array detector. Data were evaluated using ChemStation B.04.03. […] The linear regression of the calibration line was 0.9998 the limit of detection (LOD) and quantification (LOQ) was 1.11 μg/ml and 3.33 μg/ml, respectively.

Effect of BC on ASP solubility: negative effect
Substance: benzalkonium chloride [BC]
